Source: patent US9085576B2 (AMGEN INC., priority 2013, dated 2015)

Amino acid sequences for entries named in this document (tags omitted). Residues count along the entry.
UniProt P56817, 46-501: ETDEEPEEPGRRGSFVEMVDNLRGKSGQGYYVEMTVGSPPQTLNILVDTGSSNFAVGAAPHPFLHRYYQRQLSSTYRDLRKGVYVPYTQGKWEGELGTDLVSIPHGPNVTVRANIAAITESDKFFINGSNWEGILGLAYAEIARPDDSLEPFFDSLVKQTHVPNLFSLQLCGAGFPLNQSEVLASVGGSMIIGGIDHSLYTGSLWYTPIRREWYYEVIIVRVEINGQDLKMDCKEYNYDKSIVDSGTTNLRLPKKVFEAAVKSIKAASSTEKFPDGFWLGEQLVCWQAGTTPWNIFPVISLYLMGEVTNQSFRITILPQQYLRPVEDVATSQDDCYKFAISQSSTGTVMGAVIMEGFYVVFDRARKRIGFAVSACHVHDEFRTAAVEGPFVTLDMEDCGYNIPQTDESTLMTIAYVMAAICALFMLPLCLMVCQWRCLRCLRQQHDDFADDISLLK
UniProt P07339, 65-412, species assumed: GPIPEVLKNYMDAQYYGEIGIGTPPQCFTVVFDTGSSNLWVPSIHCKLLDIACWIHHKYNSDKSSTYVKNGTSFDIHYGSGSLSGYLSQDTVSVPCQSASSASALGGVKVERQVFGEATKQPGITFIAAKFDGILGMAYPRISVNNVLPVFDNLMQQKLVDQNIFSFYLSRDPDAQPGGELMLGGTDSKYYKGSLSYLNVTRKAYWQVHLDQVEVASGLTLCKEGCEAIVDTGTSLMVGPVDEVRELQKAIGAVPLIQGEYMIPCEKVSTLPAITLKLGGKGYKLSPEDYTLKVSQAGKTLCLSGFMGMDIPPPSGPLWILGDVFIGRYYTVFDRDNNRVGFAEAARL

Assays:
[1] = target: Beta Secretase enzyme (BACE) (Homo sapiens (Human), UniProt P56817); assay: In vitro enzymatic BACE FRET assay; assay type: biochemical; details: read-out: BACE1 Enzyme assay IC50
BACE = BACE (Homo sapiens (Human), UniProt P56817); assay: In vitro BACE cell-based assay (Aβ40 in conditioned medium, sandwich ELISA)
Cathepsin D (Cat D) = Cathepsin D (Cat D) (Homo sapiens (Human), UniProt P07339); assay: In vitro enzymatic Cathepsin D (Cat D) FRET assay; assay type: biochemical; details: read-out: CatD IC50
Abeta 40 = assay: In vivo inhibition of beta-secretase: Abeta 40 reduction in CSF and brain of the rat; details: after 4 hrs

Compound	IC50 [1] [µM]	IC50 (BACE) [µM]	IC50 (Cathepsin D (Cat D)) [µM]	also measured
Cc1cc(OCC#CC(C)(C)O)cnc1C(=O)Nc1ccc(F)c(C2(C)N=C(N)O[C@H]3C[C@H]32)c1 (mixture of isomers) [Example 29, N-(3-([1(R,S),5(S,R),6(R,S)]-3-amino-5-methyl-2-oxa-4-azabicyclo[4.1.0]hept-3-en-5-yl)-4-fluorophenyl)-5-((4-hydroxy-4-methylpent-2-yn-1-yl)oxy)-3-methylpicolinamide]	0.207	0.656		
Cc1cc(NC(=O)c2ccc(Cl)cn2)cc([C@@]2(C(F)F)N=C(N)O[C@@H]3C[C@@H]32)c1F (racemic) [Example 30, N-(3-([(1R,S),(5S,R),(6R,S)]-3-amino-5-(difluoromethyl)-2-oxa-4-azabicyclo[4.1.0]hept-3-en-5-yl)-4-fluoro-5-methylphenyl)-5-chloropicolinamide]	0.0432			
NC1=NC(c2nc(NC(=O)c3ccc(Cl)cn3)ccc2F)(C(F)F)[C@H]2C[C@H]2O1 (mixture of isomers) [Example 321, rac N-(6-((1R,5S,6R)-3-amino-5-(difluoromethyl)-2-oxa-4-azabicyclo[4.1.0]hept-3-en-5-yl)-5-fluoropyridin-2-yl)-5-chloropicolinamide]		0.295	212	
N#Cc1ccc(C(=O)Nc2cc(F)c(F)c([C@@]3(C(F)F)N=C(N)O[C@@H]4C[C@@H]43)c2)nc1 [Example 113, N-(3-((1R,5S,6R)-3-amino-5-(difluoromethyl)-2-oxa-4-azabicyclo[4.1.0]hept-3-en-5-yl)-4,5-difluorophenyl)-5-cyanopicolinamide]				% reduction of rat CSF levels at 10 pmk (Abeta 40; Abeta 40 in rat CSF, 10 mpk): 65%; % reduction of rat brain levels at 10 mpk (Abeta 40; Abeta 40 in rat brain): 58%
Cc1cc(NC(=O)c2ccc(Cl)cn2)cc([C@@]2(C(F)F)N=C(N)O[C@@H]3C[C@@H]32)c1F [Example 123, N-(3-((1R,5S,6R)-3-amino-5-(difluoromethyl)-2-oxa-4-azabicyclo[4.1.0]hept-3-en-5-yl)-4-fluoro-5-methylphenyl)-5-chloropicolinamide]	0.0305			
Cc1cc(NC(=O)c2ccc(Cl)cn2)cc([C@]2(C(F)F)N=C(N)O[C@H]3C[C@H]32)c1F [Example 124, N-(3-((1 S,5R,6S)-3-amino-5-(difluoromethyl)-2-oxa-4-azabicyclo[4.1.0]hept-3-en-5-yl)-4-fluoro-5-methylphenyl)-5-chloropicolinamide]	3.53			
NC1=N[C@](CF)(c2cc(NCc3nn(C(F)F)cc3Cl)ccc2F)[C@H]2C[C@H]2O1 [Example 373, (1R,5S,6R)-5-(5-(((4-chloro-1-(difluoromethyl)-1H-pyrazol-3-yl)methyl)amino)-2-fluorophenyl)-5-(fluoromethyl)-2-oxa-4-azabicyclo[4.1.0]hept-3-en-3-amine]	0.159	0.0318	234	
N#Cc1cnc2c(c1)CC[C@H]2Nc1ccc(F)c([C@@]2(C(F)F)N=C(N)O[C@@H]3C[C@@H]32)c1 [Example 401, (R)-7-((3-((1R,5S,6R)-3-amino-5-(difluoromethyl)-2-oxa-4-azabicyclo[4.1.0]hept-3-en-5-yl)-4-fluorophenyl)amino)-6,7-dihydro-5H-cyclopenta[b]pyridine-3-carbonitrile]			555	
(R)-4-((3-((1R,5S,6R)-3-amino-5-(difluoromethyl)-2-oxa-4-azabicyclo[4.1.0]hept-3-en-5-yl)-4-fluorophenyl)amino)chroman-7-carbonitrile and (S)-4-((3-((1R,5S,6R)-3-amino-5-(difluoromethyl)-2-oxa-4-azabicyclo[4.1.0]hept-3-en-5-yl)-4-fluorophenyl)amino)chroman-7-carbonitrile [Example 383]			206	
